# Source: patent US20020123056A1, “SGK2 and its uses” (priority 2000, published 2002)
# System: SGK2
# Conditions: Hi5 insect cells expressing GST-SGK2 treated four hours at 27° C. (100 nM microcysteine, 99.8 nM okadaic acid, 49.8 nM calyculin A)
substance,measurement,setting,value
Calyculin A,No-Substrate (CCPM1),purified GST-SGK2 assayed without substrate,0 CCPM1
same,CapK sub(CCPM1),"substrate CapK sub 1 mg/ml, 15 minutes at room temperature",59335 CCPM1
same,PKB sub (CCPM1),"substrate PKB sub 1 mg/ml, 15 minutes at room temperature",92540 CCPM1
